The target of this assay is human mGlu5 (hmGlu5) (Homo sapiens, UniProt P41594). The assay is described as follows: whole-cell [3H]methoxy-PEPy inhibition binding. Type of assay: cell-based. Particulars: ~3 nM [3H]methoxy-PEPy, RT, pH 7.4, 1 h; one-site competitive fit, MPEP site.

Sequences of proteins named here, by UniProt entry; tags and fusion partners are left off. Residues count along the entry.
UniProt P41594, 21-1180 isoform P41594-2: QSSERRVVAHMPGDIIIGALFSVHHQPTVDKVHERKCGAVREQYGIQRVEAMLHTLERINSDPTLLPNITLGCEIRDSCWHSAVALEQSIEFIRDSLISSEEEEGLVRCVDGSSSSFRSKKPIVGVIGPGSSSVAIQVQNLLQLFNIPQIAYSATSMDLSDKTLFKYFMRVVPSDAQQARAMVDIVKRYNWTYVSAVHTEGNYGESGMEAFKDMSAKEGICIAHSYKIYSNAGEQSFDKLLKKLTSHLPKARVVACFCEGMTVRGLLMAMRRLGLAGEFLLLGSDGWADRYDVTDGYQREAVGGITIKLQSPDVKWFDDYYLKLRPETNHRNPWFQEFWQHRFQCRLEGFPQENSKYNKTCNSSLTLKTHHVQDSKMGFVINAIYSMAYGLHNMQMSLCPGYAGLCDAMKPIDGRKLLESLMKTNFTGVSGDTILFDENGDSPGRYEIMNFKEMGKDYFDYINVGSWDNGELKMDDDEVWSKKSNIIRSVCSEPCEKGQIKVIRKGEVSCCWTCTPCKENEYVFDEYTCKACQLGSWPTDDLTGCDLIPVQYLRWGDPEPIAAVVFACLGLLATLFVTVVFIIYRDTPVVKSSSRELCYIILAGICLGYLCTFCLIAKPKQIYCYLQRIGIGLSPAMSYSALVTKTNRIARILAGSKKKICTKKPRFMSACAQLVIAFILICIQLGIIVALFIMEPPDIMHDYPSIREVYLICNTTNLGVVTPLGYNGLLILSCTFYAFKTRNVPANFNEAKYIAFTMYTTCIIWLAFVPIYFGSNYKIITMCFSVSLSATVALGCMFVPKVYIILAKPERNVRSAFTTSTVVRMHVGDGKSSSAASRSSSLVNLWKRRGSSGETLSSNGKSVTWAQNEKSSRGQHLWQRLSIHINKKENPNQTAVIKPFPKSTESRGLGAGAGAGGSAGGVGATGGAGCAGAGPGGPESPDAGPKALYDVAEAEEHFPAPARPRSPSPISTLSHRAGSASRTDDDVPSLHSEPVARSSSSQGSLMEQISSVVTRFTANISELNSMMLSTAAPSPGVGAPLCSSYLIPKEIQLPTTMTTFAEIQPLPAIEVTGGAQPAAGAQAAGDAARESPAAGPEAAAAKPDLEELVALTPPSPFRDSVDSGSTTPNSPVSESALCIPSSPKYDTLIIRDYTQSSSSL

As for “5-methyl-2-(phenylethynyl)pyridine [5MPEP]”, the pKi was determined as 5.24 ± 0.07.

The values are drawn from publication doi:10.1101/2024.12.05.627101v1 (biorxiv, 2024).
